One series relates to Fischer 344 rats. As to the kind of experiment: Balloon induced arterial injury in rats. An excerpt:
All surgeries were under isoflurane anaesthesia (Baxter, Ill., USA). Balloon injury in the right iliac artery was inflicted with a 2F Fogarty catheter (Baxter Corp., Irvine, Calif., USA) adapted to a custom angiographic kit (Boston Scientific, Scimed). An aortotomy in the abdominal aorta was made to insert a 2F Fogarty embolectomy catheter to the level of the right iliac artery. The balloon was inflated to 1.5-1.6 atmospheres and retracted to the arteriotomy site three times. The aortic excision was repaired with 8.0 sutures. The abdominal cavity was closed by planes using interrupted suture pattern. Arterial specimens were collected 3-30 days after injury and fixed in 4% formalin-PBS (Sigma-Aldrich, St. Louis, Mo.) for 5 min and analyzed by histology and immunostaining
Elastica van Gieson staining was used for histochemical analyses to evaluate neointima formation. Morphometric analyses was performed in a blinded fashion using NIH ImageJ. Immunostaining with anti-rat CD68 (1:50, AbD Serotec) for the detection of macrophages in the tissue.
Leukocyte recruitment precedes neointimal thickening and restenosis following percutaneous transluminal coronary angioplasty (PTCA). Denudation of the endothelial cell lining at the site of mechanical vascular injury leads to the deposition of fibrin and platelets, where selective binding between the platelet cell surface receptor GP Ibα and the integrin CD11b/CD18 expressed on the surface of leukocytes mediates the recruitment of leukocytes. Indeed, in the experimental models of mechanical vascular injury, antibody-mediated CD11b/CD18 blockade or its absence (CD11b^−/−) decreases intimal thickening after angioplasty or stent implantation. To investigate the effects of pharmacologically activating CD11b/CD18 in vivo on this injury, we tested our agonists in an arterial balloon injury model in rats. We administered leukadherins LA1, LA3 or vehicle (DMSO) to Fisher male rats 30 min prior to injury and continued injections every other day for three weeks. […]

A further series has as its system K562 CD11b/CD18 cells. As to the kind of experiment: Cell viability assay (MTS). Conditions: 24 h; concentrations as high as 50 μM. The method, then: Cell viability assay was performed as described. Briefly, K562 CD11b/CD18 cells (10,000/well) were incubated in 96 well plates (Corning, Corning, N.Y.) with increasing amounts of indicated compound for 24 h. The number of viable cells after 24 h was determined by using MTS reagent according to manufacturers protocol (Promega, Madison, Wis.) and using Spectramax M5 spectrophotometer (Molecular Devices) for reading of the assay plates. Data presented is representative of at least two independent experiments.

Series [1] concerns the target mutant integrin CD11bE320A/CD18 (Homo sapiens, UniProt P11215, E336A). In words: Adhesion of K562 E320A cells to immobilized Fg. As to the method: K562 cells (ATCC) stably transfected with wild-type integrin CD11b/CD18 (K562 CD11b/CD18) have been described previously. Mutant CD11bE320A has been described previously. K562 cells stably transfected with mutant integrin CD11bE320A/CD18 (K562 E320A) were generated according to literature protocols. All cell lines were maintained in Iscove's Modified Dulbecco's Medium (IMDM) supplemented with 10% heat-inactivated fetal bovine serum, 50 IU/ml penicillin and streptomycin and 0.5 mg/ml G418.
Cell adhesion assays with immobilized ligands were performed as previously described. Assays with all different K562 cell lines (K562, K562 CD11b/CD18 and K562 E320A) were performed in an identical fashion. Briefly, 384-well Highbind microtiter plates were coated with a 30 μL solution of ligand in Phosphate Buffered Saline, pH 7.4 containing 1 mM each of Ca^2+ and Mg^2+ ions (PBS^++) overnight at 4° C. Ligand Fg was coated at a concentration of […] and iC3b at […]. Heterodimer specific mAb IB4 (ascites) was coated at a 1:100 dilution. […] Cells remaining adherent were fixed using formaldehyde and were quantitated using imaging microscopy, as previously described. […]

As for `CCOC(=O)CN1C(=O)SC(=Cc2ccc(-c3ccc(Cl)cc3Cl)o2)C1=O`, the “neointima to media ratio” value in the series with Fischer 344 rats (rat arteries 21 days after balloon injury, vehicle 0.23±0.01) was found to be 0.14±0.01. Moreover, the “number of medial macrophages (CD68)” value in the series with Fischer 344 rats (rat arteries three days post-injury, vehicle 42.2±6.7) came out at 6.9±1.3. Further, in the series with K562 CD11b/CD18 cells, the “in vitro cytotoxicity to K562 cells” value is on record as “no cytotoxicity”. The “binding of K562 E320A to Fg” value in series [1] was “selectively increased”.
For `O=C(O)c1ccc(-c2ccc(C=C3SC(=O)N(c4ccccc4)C3=O)o2)cc1`, the “effect on neointimal thickening” value in the series on Fischer 344 rats (rat balloon injury, result in words) is on record as “no effect”. For the same compound, in the series with K562 CD11b/CD18 cells, the “in vitro cytotoxicity to K562 cells” value is given as “no cytotoxicity”. The “binding of K562 E320A to Fg” value in series [1] is on record as “selectively increased”.

These data come from patent US9023876B2, “Compounds and methods for regulating integrins” (Adhaere Pharmaceuticals, Inc., priority 2010, dated 2015).
